Laboratory results taken from ChEMBL document CHEMBL5230114, “Current development of CFTR potentiators in the last decade” (Eur J Med Chem, 2020).

Chains of the proteins cited; added tags and fusions are not shown. A line that says so, or that is headed by a name, gives the form on record, which may keep a tag or linker.
UniProt P13569, as listed by the source: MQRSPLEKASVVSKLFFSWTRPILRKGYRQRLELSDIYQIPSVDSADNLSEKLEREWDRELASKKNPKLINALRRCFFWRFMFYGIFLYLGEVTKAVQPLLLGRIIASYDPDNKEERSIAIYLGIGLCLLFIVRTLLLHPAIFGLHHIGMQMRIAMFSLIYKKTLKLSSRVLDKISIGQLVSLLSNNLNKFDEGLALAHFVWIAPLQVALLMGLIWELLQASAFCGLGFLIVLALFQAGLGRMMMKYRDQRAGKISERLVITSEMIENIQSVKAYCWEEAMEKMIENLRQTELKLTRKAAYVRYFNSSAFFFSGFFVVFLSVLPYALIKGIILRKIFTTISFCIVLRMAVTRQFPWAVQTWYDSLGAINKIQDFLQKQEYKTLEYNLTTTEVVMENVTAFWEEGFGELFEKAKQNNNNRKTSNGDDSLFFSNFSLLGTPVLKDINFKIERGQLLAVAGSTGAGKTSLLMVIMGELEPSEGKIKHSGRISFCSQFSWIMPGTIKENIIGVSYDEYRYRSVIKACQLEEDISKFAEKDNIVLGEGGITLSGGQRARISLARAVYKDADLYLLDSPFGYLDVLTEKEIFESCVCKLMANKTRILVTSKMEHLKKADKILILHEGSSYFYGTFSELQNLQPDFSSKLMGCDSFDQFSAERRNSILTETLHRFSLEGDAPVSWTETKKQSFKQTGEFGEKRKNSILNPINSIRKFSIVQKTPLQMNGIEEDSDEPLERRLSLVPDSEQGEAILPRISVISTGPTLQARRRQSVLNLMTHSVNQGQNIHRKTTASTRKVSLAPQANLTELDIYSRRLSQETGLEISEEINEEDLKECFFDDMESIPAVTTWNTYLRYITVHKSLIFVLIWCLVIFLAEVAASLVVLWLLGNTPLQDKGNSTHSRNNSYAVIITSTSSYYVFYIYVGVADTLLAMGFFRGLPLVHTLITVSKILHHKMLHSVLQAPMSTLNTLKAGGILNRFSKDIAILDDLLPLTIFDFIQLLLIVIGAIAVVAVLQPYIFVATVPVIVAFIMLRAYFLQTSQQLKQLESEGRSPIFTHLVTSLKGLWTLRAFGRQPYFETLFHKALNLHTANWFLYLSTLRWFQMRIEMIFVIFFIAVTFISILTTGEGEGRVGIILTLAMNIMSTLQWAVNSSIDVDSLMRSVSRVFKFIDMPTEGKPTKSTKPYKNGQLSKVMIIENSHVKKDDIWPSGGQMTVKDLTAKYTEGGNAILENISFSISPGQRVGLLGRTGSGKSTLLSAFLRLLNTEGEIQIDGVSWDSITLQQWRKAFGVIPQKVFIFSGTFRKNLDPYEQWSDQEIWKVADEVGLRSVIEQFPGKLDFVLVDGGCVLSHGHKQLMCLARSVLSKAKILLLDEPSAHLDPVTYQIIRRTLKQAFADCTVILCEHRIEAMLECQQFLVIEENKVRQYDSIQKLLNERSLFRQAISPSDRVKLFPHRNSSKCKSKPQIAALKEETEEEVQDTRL

Biological target: Cystic fibrosis transmembrane conductance regulator (Homo sapiens, UniProt P13569, F508DEL)
Test: Potentiation of CFTR F508del mutant activity (unknown origin)

- EC50: 7 µM
Structure (SMILES): O=c1c(-c2ccc(O)cc2)coc2cc(O)cc(O)c12 [GENISTEIN]
